Measured affinities in a library of Ab-14 light chain variants

Source: Li et al. 2023 (doi:10.1038/s41467-023-39022-2), MIT Lincoln Laboratory and A-Alpha Bio; data file from the FLAb repository.

Target peptide (SARS-CoV-2 spike, HR2 region): PDVDLGDISGINAS

The variants keep the heavy chain, the linker and the frameworks of Ab-14 (scFv order VH, a 15-residue (Gly4Ser)3 linker, VL).
VH: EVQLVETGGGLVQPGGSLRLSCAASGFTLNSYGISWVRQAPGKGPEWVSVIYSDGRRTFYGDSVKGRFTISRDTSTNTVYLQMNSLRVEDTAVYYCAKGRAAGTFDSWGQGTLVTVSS
VL: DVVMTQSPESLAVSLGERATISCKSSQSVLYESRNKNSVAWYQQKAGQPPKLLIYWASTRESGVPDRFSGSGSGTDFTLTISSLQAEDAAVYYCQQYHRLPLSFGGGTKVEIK

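Phage display of a naive human antibody library on the peptide gave the parent. Designed CDR sequences, proposed from the first random library and measured here. Group labels follow the data file (Ctrl: baseline library sampled from a position-specific scoring matrix, with some repeated check sequences; Rand: our label for a block that the file lists under HC and that is probably the random mutants of the ten best first-round binders; En: ensemble of fine-tuned language models; GP: Gaussian process model; GPLM: also part of the Gaussian process libraries; HC: hill climbing; Gen: genetic algorithm; Gibbs: Gibbs sampling; a sequence that several methods proposed may carry one label only). AlphaSeq pools MATa yeast showing the antibodies with MATalpha yeast showing the peptide. The frequency of each diploid, read from paired DNA barcodes, reflects how well the two displayed proteins bind. Scores were corrected for input abundance and mapped to Kd with protein pairs of known affinity run in the same pool. The assay was run in six technical replicates.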

Each variant is given by its three light chain CDRs, as the data file delimits them; those of the parent are KSSQSVLYESRNKNSVA, WASTRES, QQYHRLPLS.
Values are log10 of the apparent Kd in nM; lower means stronger binding.
Averages over replicates are reported, and they cover detected replicates only.
"no signal" means that the variant was in the library but no mating with the target was seen in any replicate; the authors take this as a sign of poor binding, and no number exists.

CDR-L1,CDR-L2,CDR-L3,group,mean log10 Kd (nM),detected
ILSQSVLMGSHLKNSVA,QAQTRES,QQYHRLPLS,En_HC,0.74,6 of 6
KLSLFYRVETRQKNSVA,DNSTRES,QDYDRLPLS,En_HC,2.66,6 of 6
KQPQSVLYESVNKNSVA,DASTRES,QQYHRLPLS,GP_HC,0.44,6 of 6
KISQMVRVGATHNNSIA,EEQTRAK,QQYHRLPLS,En_Gen,2.26,3 of 6
KLSQDVLYESRNKNSVA,NASTRES,QQYHRLPLS,GP_Gen,-0.34,6 of 6
KLSQSVLYESRNKNSVA,NASTREA,QQYHRLPLS,GP_Gen,-0.12,6 of 6
KSSQGVLYQSRNKNSVA,GASTRES,QQYHRLPLS,GP_HC,-0.01,6 of 6
KFSQMSNMFSVSMNAVA,EMSTRED,QQYNRLPLA,En_Gen,0.97,6 of 6
IVSQLMLWGLHAKNSIA,EAVTRLN,QQYERLPLF,En_Gen,1.84,4 of 6
KSSQSWLYESRNKNSVA,GASSRES,QQYHRLPLS,Rand,-0.08,6 of 6
HISMMVGTKGYNKNSVA,NAEERED,QQYHRLPLS,En_HC,-0.02,6 of 6
MLVGPDEMEQHNWQSVA,SAEALAM,QQYFRLPLS,En_Gibbs,2.00,2 of 6
TVSQVHEMLSKNKNSVA,DMNTRES,QQYDRLPLS,En_HC,0.22,6 of 6
KLSMTHQMESVNRNSVA,ELVTRMS,QQYNRLPLS,En_Gen,0.23,6 of 6
KMQQGVLYESRNKNSVA,GASTRES,QQYHRLPLS,GP_HC,-0.11,6 of 6
KLGQSVAMTSRNKNNVA,DLNERGR,QQYHRLPLS,En_HC,0.66,6 of 6
HIDSQEVGTIGAESNVA,ETNTLLY,QQYSKLPLM,En_Gibbs,1.14,6 of 6
KSSPSYLYESRNENSVA,EASTREQ,QQYHRLPLS,GP_HC,0.22,6 of 6
KVSQSVLYESRNKNSVA,DASTRES,QQYHRLPLM,GPLM_HC,0.05,6 of 6
KLPQSVLYESRDKNSVA,HASTRED,QQYHRLPLS,GP_HC,-0.06,6 of 6
MMSQMFEGLSTVKNPVA,QVSTREE,QQYHRLPLS,En_HC,1.43,6 of 6
TISQLYNMGQFAINSVA,QASERCN,QQYDRLPLM,En_Gen,1.06,6 of 6
KVPFSVLYESRNKNAVA,QASTRES,QQYHRLPLS,GP_Gibbs,0.87,6 of 6
KVQQSWLYESRNKNSVA,NASTRED,QQYHRLPLS,GP_Gen,0.69,6 of 6
KLSEVAHFESRKKNSVA,ENSTRES,QQYDHLPLS,En_HC,1.64,6 of 6
KLGYTSYGEVNGQHNIA,EMDQLTF,QQYSHLPLS,En_Gibbs,0.19,6 of 6
KSSQSDLYESRNFNSVA,GASTRES,QQYHRLPLS,GP_HC,0.22,6 of 6
MSSPSVGMEDRNKNSVA,WASQRES,NQYHRLPLS,Ctrl,no signal,0 of 6
KSLWSVLYESENKNSVA,HASTRED,QQYHRLPLS,GP_HC,0.67,6 of 6
IITQSVMQESRNKSNVA,NTAERES,QQYDRLPLI,En_HC,3.11,5 of 6
KSSHSKLYESRNKNSVA,WASTRES,QQYHRLPLS,Ctrl,3.19,1 of 6
KSMQSVLDESRNKNSVA,QASWRES,QQYHRLPLL,Ctrl,0.72,2 of 6
IVSQLMIWGMHVKNSIA,EAELRLN,QQYDRLPLI,En_Gen,1.84,4 of 6
KSMDSVLYESRNKNSVA,WASRRES,QSYHGLPLS,Ctrl,2.83,4 of 6
KLQQSWLYLSRNHNAVA,HASQRCS,QDYHRLPLS,GP_Gibbs,0.96,6 of 6
HSSGSVLYESRNKNSVA,NASTRES,QQYHRLPLQ,GP_HC,1.05,6 of 6
KIAMSMNLTSHHINSVA,QSTTREE,QQYNHLPLS,En_HC,0.97,6 of 6
KQSQAFLTESRNKNSVA,DANTRES,QQYHRLPLS,GP_HC,-0.22,6 of 6

Continued, with the values leading:

mean log10 Kd (nM),detected,CDR-L1,CDR-L2,CDR-L3,group
-0.32,6 of 6,KMSQSVLYESRNKNNVA,NASTRES,QQYHRLPLS,GP_Gen
0.59,6 of 6,KLSQSNLYESRNKNSVA,WASTRED,QQYHRLPLS,Ctrl
1.35,6 of 6,MIAQGLRGQGRNKNSVA,NAQTRES,QHYHRLPLS,En_HC
-0.15,6 of 6,KLQQLELYESRNKNSVA,SASTREE,QQYHRLPLS,GP_HC
0.02,6 of 6,KCSQSVLFESRNKNSVA,DASTRES,QQYHRLPLS,GPLM_HC
0.98,6 of 6,HISQMVMLGSCNKNNVA,QVSTREE,QQYHRLPLS,En_HC
0.12,6 of 6,KSSQSVDSESRNKNSVA,DASTRES,QQYHRLPLS,GP_HC
1.86,6 of 6,KLSQYVGGESRNKSSLA,DNSTREA,QQYERLPLS,En_HC
-0.17,6 of 6,KVSQVYLYESRNKNSVA,GASTRES,QQYHRLPLS,GP_HC
0.98,5 of 6,TISQMMQLFSQTINNVA,EVSTREQ,QQYDRLPLM,En_Gen
0.88,6 of 6,KTSGSVLYESRNYNSVA,GASTRES,QQYHRLPLS,Ctrl
0.54,6 of 6,KVSQSVLYESRNKNSVA,WASTRES,QQYIRLPLS,Ctrl
0.94,6 of 6,KLSQMVNFFGHAINSVA,EMETREN,QQYDRLPLS,En_HC
-0.19,6 of 6,KLSQSVLYESRNVNSVA,NASTRES,QQYHRLPLS,GP_Gen
0.02,6 of 6,KVSQSELYESRNKNSVA,HASQRES,QQYHRLPLS,GP_Gen
1.44,6 of 6,KSSQSVLYESRNKNSVA,EASTRES,QQYHRWPLS,Ctrl
-0.12,6 of 6,KLQQAELGESRNKNSVA,SASTRES,QQYHRLPLS,GP_Gibbs
no signal,0 of 6,KSSQSLLYESRNKNSFA,WASTRED,QQYHRLPLS,Ctrl
1.73,6 of 6,TIGGTLMYGSRNRSNVA,EVSERLN,QQYDRLPLL,En_Gen
0.45,6 of 6,KISQMVRVGSTVSNSIA,EMVTRAN,QQYHRLPLS,En_Gen
0.13,6 of 6,KSGQSVLYESRNKNSVA,GASQRES,QQYHRLPLS,GP_HC
0.76,6 of 6,QLGWNQSGDTLSQGAIA,HAAELVD,QQYFRLPLL,En_Gibbs
0.06,6 of 6,KMSQSHNYESRNKNSVA,SASTRES,QQYARLPLS,Ctrl
1.03,6 of 6,KSSQSVLYESRNLNSVA,EASTRES,QQYHRLPLS,Ctrl
0.60,6 of 6,KVDLITNPGNLMHNSVA,AATVKWE,QQYSQLPLS,En_Gibbs
no signal,0 of 6,SLSMFMDNYNQKYDSVA,DTANIDI,QQYDRLPLS,En_Gibbs
0.20,6 of 6,KLVQFMNRGTHHTSNIA,DAVNRLD,QQYARLPLV,En_Gen
1.37,6 of 6,KSSQSLLYESRNKNSVA,WASTRES,QQYHRLPLS,Ctrl
0.20,6 of 6,KLSQSVGYGSRNKWSVA,EASTRES,QQYHRLPLS,GP_Gibbs
1.01,6 of 6,TLYGLTNSMSKNKDNVA,EMTTREK,QQYDRLPLA,En_Gen
2.07,5 of 6,HVSMLTLQGMRHTNSVA,QMTTRVN,QQYDRLPLM,En_Gen
1.86,2 of 6,KSSQQVLYESRNKNSVA,WASTRES,QQYHRLPLS,Ctrl
1.75,5 of 6,KISQLVNFLGKNMNSVA,QMSTRES,QQYDRLPLS,En_HC
0.04,6 of 6,HISNMQAYGYSATNSVA,DNTNKLN,QQYIRLPLT,En_Gibbs
0.03,6 of 6,KMSQSQLYEERASNAVA,QASQRMS,QQYHRLPLS,GP_Gibbs
0.64,6 of 6,KISMLVNFLGKNKNSVA,QMSTREE,QQYDRLPLS,En_HC
1.02,6 of 6,MISELMNMGQFAINSVA,QASIRNE,QQYDRLPLI,En_Gen
2.28,5 of 6,KSPPSVLYNSRNKNSVA,WASTREI,QQYHRLPLS,Ctrl

For reference, 11 entries of the list once more:

CDR-L1	CDR-L2	CDR-L3	group	mean log10 Kd (nM)	detected
MSSPSVGMEDRNKNSVA	WASQRES	NQYHRLPLS	Ctrl	no signal	0 of 6
KVPFSVLYESRNKNAVA	QASTRES	QQYHRLPLS	GP_Gibbs	0.87	6 of 6
MISELMNMGQFAINSVA	QASIRNE	QQYDRLPLI	En_Gen	1.02	6 of 6
HISMMVGTKGYNKNSVA	NAEERED	QQYHRLPLS	En_HC	-0.02	6 of 6
HIDSQEVGTIGAESNVA	ETNTLLY	QQYSKLPLM	En_Gibbs	1.14	6 of 6
KLQQSWLYLSRNHNAVA	HASQRCS	QDYHRLPLS	GP_Gibbs	0.96	6 of 6
KLSLFYRVETRQKNSVA	DNSTRES	QDYDRLPLS	En_HC	2.66	6 of 6
MLVGPDEMEQHNWQSVA	SAEALAM	QQYFRLPLS	En_Gibbs	2.00	2 of 6
KSGQSVLYESRNKNSVA	GASQRES	QQYHRLPLS	GP_HC	0.13	6 of 6
KLSQSVLYESRNKNSVA	NASTREA	QQYHRLPLS	GP_Gen	-0.12	6 of 6
KISQMVRVGSTVSNSIA	EMVTRAN	QQYHRLPLS	En_Gen	0.45	6 of 6

Of ten entries with the parent sequence, four were seen in most replicates (averages 0.34 to 2.37), three in one and three in none, so single entries are noisy.
Three control strains display no target. For all light chain designs, 4% of the pairings with them gave a signal, with a median of 2.64 and one signal in twenty below 1.59, so weak values seen in few replicates may be background.
Values of this round are not directly comparable with the first-round values of the same sequences.
The authors' rule: three or more of the six replicates give a measured affinity, fewer mean a poor binder.